{
  "source": "patent US20240115662A1",
  "about": "“METHODS OF TREATING HYPOGONADOTROPIC HYPOGONADISM AND COGNITION IMPAIRMENT FOLLOWING A TRAUMATIC BRAIN INJURY” (WISCONSIN ALUMNI RESEARCH FOUNDATION, priority 2021, published 2024)",
  "origin": "cited, not measured here",
  "key": {"[1]": {"test_system": "female mice", "details": "cited from earlier work; for increase in the number of BrdU-labeled cells: female mice, LH subcutaneously 2 days"}, "[2]": {"details": "cited from earlier work; for terminal half-life: subcutaneous administration"}},
  "note": "Read-outs that look alike come from different tables or passages of the source.",
  "data": [
    {"substance": "LH: heterodimeric glycoprotein hormone, luteinizing hormone (β subunit SEQ ID NO:3)", "values": [
      {"measurement": "increase in the number of BrdU-labeled cells", "setting": "[1]; SVZ", "result": 29, "unit": "%"},
      {"measurement": "increase in the number of BrdU-labeled cells", "setting": "[1]; dentate gyrus", "result": 53, "unit": "%"},
      {"measurement": "SVZ and dentate gyrus proliferation", "setting": "[1]; ovariectomized female mice", "result": "increased SVZ and dentate gyrus proliferation"},
      {"measurement": "half-life", "setting": "[2]; in vivo", "result": "about 20 minutes"}
    ]},
    {"substance": "r-hLH: recombinant human luteinizing hormone", "values": [
      {"measurement": "terminal half-life", "setting": "[2]", "result": "21 to 24", "unit": "h"}
    ]},
    {"substance": "recombinant hCG: recombinant human chorionic gonadotropin", "values": [
      {"measurement": "terminal half-life", "setting": "[2]", "result": "32 to 33", "unit": "h"}
    ]}
  ]
}
